The species entered for the experiment is Homo sapiens. Put plainly: Selectivity ratio of IC50 for human recombinant NQO1 to IC50 for human recombinant NQO2.

This note sets out measurements from ChEMBL document CHEMBL1159058, “Triazoloacridin-6-ones as novel inhibitors of the quinone oxidoreductases NQO1 and NQO2” (Bioorg Med Chem, 2010).

Structures are written as SMILES.

Consider `O=c1c2ccccc2n2nnc3ccc(NCCc4ccccc4)c1c32`, for which the Ratio IC50 worked out at 5.79.
On to `COc1ccc2c(c1)c(=O)c1c(NCCN(C)C)ccc3nnn2c31`, for which the Ratio IC50 was 0.08.
For `COc1ccc2c(c1)c(=O)c1c(NCCc3ccccc3)ccc3nnn2c31` the value was 11.2.
